Key:
Mu-type opioid receptor = Mu-type opioid receptor (Homo sapiens, UniProt P35372); assay: Partial agonist activity at human MOP receptor expressed in CHO cells assessed as stimulation of [35S]GTPgammaS binding after 60 mins by scintillation counting
Nociceptin receptor = Nociceptin receptor (Homo sapiens, UniProt P41146); assay: Partial agonist activity at human NOP receptor expressed in CHO cells assessed as stimulation of [35S]GTPgammaS binding after 60 mins by scintillation counting
[1] = target: T1, Kappa-type opioid receptor (Homo sapiens, UniProt P41145); assay: Displacement of [3H]U69593 from human KOP receptor expressed in CHO cells after 60 mins by scintillation counting
[2] = target: Delta-type opioid receptor (Homo sapiens, UniProt P41143); assay: Partial agonist activity at human DOP receptor expressed in CHO cells assessed as stimulation of [35S]GTPgammaS binding after 60 mins by scintillation counting
[3] = target: T1, Kappa-type opioid receptor; assay: Partial agonist activity at human KOP receptor expressed in CHO cells assessed as stimulation of [35S]GTPgammaS binding after 60 mins by scintillation counting
Mus musculus [4] = assay: Antinociceptive activity in sc dosed CD1 mouse assessed as inhibition of PPQ-induced writhing by tail flick assay; conditions: strain CD1, Tail
Mus musculus [5] = assay: Antinociceptive activity in sc dosed CD1 mouse by tail flick assay; conditions: strain CD1, Tail
Mus musculus [6] = assay: Antinociceptive activity in CD1 mouse at 30 mg/kg, sc by tail flick assay; conditions: route subcutaneous, strain CD1, Tail

Amino acid sequences for entries named in this document (tags omitted).
UniProt P35372, whole entry: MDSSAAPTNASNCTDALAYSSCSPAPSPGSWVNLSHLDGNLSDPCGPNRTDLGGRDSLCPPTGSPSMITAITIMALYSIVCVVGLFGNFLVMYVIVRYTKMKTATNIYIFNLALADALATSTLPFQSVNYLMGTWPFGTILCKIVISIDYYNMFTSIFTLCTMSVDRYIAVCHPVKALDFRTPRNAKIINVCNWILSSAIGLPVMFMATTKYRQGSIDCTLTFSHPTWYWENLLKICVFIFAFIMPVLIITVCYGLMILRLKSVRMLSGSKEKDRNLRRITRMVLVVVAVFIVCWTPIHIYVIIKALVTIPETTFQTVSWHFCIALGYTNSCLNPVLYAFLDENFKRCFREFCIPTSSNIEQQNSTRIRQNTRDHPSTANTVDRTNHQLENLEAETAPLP
UniProt P41146, whole entry: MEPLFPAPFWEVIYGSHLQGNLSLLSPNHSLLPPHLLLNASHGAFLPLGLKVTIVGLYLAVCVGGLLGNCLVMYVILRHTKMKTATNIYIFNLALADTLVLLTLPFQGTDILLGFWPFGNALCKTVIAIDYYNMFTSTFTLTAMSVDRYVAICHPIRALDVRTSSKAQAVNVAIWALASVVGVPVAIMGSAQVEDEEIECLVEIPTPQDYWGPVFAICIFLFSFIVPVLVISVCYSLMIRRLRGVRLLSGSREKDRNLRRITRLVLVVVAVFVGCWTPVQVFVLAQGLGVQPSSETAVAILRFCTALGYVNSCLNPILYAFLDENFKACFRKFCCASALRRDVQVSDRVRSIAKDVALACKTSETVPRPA
UniProt P41145, whole entry: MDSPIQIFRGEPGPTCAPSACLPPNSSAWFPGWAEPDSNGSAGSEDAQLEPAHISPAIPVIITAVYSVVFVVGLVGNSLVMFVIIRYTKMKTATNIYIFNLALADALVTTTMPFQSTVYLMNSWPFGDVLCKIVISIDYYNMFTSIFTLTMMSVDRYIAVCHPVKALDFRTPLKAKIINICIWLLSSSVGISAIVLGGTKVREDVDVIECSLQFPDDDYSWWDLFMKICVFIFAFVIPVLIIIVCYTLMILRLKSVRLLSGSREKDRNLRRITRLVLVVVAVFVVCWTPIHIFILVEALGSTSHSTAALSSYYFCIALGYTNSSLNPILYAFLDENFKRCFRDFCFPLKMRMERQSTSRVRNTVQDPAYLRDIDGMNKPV
UniProt P41143, whole entry: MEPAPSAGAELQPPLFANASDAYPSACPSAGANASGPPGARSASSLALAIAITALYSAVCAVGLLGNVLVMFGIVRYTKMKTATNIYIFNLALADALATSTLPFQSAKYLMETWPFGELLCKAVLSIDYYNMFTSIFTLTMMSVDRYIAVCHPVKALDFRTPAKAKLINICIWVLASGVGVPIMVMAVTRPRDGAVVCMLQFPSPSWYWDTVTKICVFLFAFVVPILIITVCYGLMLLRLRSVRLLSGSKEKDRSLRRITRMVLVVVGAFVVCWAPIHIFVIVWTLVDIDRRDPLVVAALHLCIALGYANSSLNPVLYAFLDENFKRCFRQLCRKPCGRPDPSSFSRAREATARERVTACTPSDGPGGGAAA

Compound | EC50 (Mu-type opioid receptor) | EC50 (Nociceptin receptor) | Ki [1] | EC50 [2] | EC50 [3] | ED50 (Mus musculus [4]) | A50 (Mus musculus [5]) | Activity (Mus musculus [6])
CCC(C)(C)[C@](C)(O)[C@H]1C[C@@]23CC[C@]1(OC)[C@@H]1Oc4c(O)ccc5c4[C@@]12CCN(CC1CC1)[C@@H]3C5 | 0.006 µM | 0.0786 µM | 0.00563 µM |  |  |  |  | 
CO[C@]12CC[C@@]3(C[C@@H]1[C@](C)(O)CC1CC4CCC1C4)[C@H]1Cc4ccc(O)c5c4[C@@]3(CCN1CC1CC1)[C@H]2O5 (stereo not given in full) | 0.0061 µM | 0.111 µM |  | 0.0493 µM | 0.00533 µM |  |  | 
CO[C@]12CC[C@@]3(C[C@@H]1[C@@](C)(O)C(C)(C)C)[C@H]1Cc4c(Cl)cc(O)c5c4[C@@]3(CCN1CC1CC1)[C@H]2O5 |  |  |  |  |  | 0.016 mg/kg | 4.7 mg/kg | 15%
CO[C@]12CC[C@@]3(C[C@@H]1[C@](C)(O)CC(C)(C)c1ccccc1)[C@H]1Cc4ccc(O)c5c4[C@@]3(CCN1CC1CC1)[C@H]2O5 |  | 2.38 µM |  | 3.41 µM | 0.00088 µM |  |  | 
CO[C@]12CC[C@@]3(C[C@@H]1[C@](C)(O)CC(C)(C)C)[C@H]1Cc4ccc(O)c5c4[C@@]3(CCN1CC1CC1)[C@H]2O5 | 0.0026 µM |  |  | 0.0501 µM |  |  |  | 
